The record followed here is ChEMBL document CHEMBL4219127, “Structural design, synthesis and substituent effect of hydrazone-N-acylhydrazones reveal potent immunomodulatory agents” (Bioorg Med Chem, 2018).

Data set [1] deals with J774. In words: Cytotoxicity against BALB/c mouse J774 cells assessed as reduction in cell viability after 72 hrs by alamarBlue assay. Format: cell-based. Particulars: j774, 72 h, strain BALB/c. (In general: Alamar Blue is a resazurin reagent that responds to reducing activity.)
In data set [2] the test system is Splenocyte. In words: Immunomodulatory activity in BALB/c mouse splenocytes assessed as inhibition of concanavalin A-induced lymphocyte proliferation by measuring [3H]-thymidine uptake after 48 to 72 hrs by scintillation counting analysis. Particulars: strain BALB/c.
In data set [3] the test system is Splenocyte. In words: Cytotoxicity against BALB/c mouse splenocytes assessed as reduction in cell viability up to 12 uM.
The test system of data set [4] is J774. In words: Cytotoxicity against BALB/c mouse J774 cells assessed as reduction in cell viability up to 12 uM after 72 hrs by alamarBlue assay. Particulars: j774, 72 h, strain BALB/c.

The CC50 is the concentration that lowers cell viability or growth by half. The IC50 is the midpoint of a concentration-inhibition curve. With `CC(/C=N/Nc1ccc([N+](=O)[O-])cc1)=N\NC(=O)c1cc([N+](=O)[O-])cc([N+](=O)[O-])c1`, in data set [1], the half-maximal cytotoxic concentration (CC50) was determined as 17.8 µM. Also, in data set [2], the IC50 is 0.27 µM. Also, the Activity entry in data set [3] and in data set [4] was “Non-Toxic” each time.
